Measured values reported in BindingDB's records for PubMed 2547939 (Abbott Laboratories, 1989).

Sequences of proteins named here, by UniProt entry; tags and fusion partners are left off. A change or cut given only in a name is not applied to a line headed by its entry.
UniProt P08482: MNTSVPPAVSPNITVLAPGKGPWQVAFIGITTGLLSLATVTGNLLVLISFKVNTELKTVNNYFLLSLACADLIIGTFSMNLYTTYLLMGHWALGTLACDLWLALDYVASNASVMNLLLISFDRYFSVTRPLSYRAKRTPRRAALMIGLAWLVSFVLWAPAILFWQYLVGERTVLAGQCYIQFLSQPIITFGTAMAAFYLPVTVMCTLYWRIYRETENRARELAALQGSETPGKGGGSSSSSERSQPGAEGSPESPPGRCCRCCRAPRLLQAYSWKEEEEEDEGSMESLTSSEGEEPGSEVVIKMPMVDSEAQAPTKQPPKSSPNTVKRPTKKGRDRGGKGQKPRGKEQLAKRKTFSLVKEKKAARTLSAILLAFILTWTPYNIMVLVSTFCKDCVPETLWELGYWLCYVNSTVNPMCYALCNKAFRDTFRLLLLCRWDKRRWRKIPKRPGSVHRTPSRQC

Target: Muscarinic acetylcholine receptor M1 (Rattus norvegicus, UniProt P08482)

COc1ccccc1CNCCCCCCNCCCCCCCCNCCCCCCNCc1ccccc1OC [METHOCTRAMINE]
Ki: 34.7 nM
